Seven compounds from US11897862B2 (Gilead Sciences, Inc., priority 2022, dated 2024) can be followed below.

By UniProt entry, the sequences of proteins in these tests, tags left out. Residues count along the entry.
UniProt Q13422, whole entry: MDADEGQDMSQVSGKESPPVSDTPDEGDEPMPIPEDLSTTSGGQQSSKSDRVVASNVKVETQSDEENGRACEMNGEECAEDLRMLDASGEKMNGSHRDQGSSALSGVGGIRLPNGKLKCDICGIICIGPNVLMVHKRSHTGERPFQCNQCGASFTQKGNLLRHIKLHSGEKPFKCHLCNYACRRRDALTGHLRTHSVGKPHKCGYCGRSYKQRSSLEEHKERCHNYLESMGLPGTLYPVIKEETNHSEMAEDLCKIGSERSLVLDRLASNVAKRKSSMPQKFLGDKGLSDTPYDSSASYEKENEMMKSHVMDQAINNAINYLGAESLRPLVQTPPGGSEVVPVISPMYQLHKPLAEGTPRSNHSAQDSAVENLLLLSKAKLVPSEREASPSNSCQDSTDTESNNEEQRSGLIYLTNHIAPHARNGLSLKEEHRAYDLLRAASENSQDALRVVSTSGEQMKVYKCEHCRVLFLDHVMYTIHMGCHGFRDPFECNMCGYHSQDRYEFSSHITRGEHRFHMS
UniProt Q96SW2, whole entry: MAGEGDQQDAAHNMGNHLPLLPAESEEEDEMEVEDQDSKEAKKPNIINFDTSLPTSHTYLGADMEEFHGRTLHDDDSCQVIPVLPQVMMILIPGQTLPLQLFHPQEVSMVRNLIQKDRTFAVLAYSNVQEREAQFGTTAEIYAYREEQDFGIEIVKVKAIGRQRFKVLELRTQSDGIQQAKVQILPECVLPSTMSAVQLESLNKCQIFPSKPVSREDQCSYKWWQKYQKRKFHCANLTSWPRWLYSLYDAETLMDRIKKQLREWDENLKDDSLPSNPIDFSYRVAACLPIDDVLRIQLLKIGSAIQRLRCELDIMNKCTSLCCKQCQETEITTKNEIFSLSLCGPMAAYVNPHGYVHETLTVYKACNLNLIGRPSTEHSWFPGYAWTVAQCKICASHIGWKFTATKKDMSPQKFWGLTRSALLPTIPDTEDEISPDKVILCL
UniProt Q9UKS7, 1-500 isoform 2: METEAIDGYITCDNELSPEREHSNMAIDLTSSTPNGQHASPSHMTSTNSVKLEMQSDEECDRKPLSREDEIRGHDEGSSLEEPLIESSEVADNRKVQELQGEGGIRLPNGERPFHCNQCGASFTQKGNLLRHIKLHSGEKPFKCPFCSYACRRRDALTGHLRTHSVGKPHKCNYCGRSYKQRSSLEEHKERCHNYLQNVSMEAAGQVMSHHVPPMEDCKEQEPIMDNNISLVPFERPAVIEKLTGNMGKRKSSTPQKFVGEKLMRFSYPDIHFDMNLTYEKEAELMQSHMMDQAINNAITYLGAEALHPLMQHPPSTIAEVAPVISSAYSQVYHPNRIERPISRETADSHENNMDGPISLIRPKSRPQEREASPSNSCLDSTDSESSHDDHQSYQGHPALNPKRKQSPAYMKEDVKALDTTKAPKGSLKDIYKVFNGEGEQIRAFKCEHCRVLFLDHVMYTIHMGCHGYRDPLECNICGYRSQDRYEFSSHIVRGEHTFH
UniProt Q9UJQ4, whole entry: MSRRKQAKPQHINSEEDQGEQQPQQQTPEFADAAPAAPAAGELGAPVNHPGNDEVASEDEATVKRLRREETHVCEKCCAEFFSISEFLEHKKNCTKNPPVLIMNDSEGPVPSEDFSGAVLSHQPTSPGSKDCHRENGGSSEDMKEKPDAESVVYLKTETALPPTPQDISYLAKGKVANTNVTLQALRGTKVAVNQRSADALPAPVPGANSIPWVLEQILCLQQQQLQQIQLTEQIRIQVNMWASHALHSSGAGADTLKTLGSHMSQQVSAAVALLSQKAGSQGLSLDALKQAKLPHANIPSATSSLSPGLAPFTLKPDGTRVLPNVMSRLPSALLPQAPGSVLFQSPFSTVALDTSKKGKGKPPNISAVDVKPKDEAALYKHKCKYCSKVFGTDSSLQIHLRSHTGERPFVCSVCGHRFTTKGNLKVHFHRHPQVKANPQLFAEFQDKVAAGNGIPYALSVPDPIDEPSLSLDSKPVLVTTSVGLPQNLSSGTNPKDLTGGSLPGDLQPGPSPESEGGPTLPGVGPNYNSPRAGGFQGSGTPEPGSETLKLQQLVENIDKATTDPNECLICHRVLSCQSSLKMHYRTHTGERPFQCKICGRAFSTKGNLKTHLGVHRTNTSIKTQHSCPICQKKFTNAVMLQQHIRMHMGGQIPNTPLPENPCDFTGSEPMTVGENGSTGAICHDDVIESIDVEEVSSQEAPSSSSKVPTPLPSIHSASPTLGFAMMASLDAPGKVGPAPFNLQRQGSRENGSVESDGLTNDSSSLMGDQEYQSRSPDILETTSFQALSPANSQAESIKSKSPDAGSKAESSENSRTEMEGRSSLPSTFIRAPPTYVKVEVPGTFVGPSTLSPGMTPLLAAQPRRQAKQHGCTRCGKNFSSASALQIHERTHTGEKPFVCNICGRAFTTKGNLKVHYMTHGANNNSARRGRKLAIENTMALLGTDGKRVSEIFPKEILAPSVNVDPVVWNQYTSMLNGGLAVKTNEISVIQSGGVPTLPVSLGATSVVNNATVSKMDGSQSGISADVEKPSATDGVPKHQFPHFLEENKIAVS
UniProt Q16531, whole entry partner: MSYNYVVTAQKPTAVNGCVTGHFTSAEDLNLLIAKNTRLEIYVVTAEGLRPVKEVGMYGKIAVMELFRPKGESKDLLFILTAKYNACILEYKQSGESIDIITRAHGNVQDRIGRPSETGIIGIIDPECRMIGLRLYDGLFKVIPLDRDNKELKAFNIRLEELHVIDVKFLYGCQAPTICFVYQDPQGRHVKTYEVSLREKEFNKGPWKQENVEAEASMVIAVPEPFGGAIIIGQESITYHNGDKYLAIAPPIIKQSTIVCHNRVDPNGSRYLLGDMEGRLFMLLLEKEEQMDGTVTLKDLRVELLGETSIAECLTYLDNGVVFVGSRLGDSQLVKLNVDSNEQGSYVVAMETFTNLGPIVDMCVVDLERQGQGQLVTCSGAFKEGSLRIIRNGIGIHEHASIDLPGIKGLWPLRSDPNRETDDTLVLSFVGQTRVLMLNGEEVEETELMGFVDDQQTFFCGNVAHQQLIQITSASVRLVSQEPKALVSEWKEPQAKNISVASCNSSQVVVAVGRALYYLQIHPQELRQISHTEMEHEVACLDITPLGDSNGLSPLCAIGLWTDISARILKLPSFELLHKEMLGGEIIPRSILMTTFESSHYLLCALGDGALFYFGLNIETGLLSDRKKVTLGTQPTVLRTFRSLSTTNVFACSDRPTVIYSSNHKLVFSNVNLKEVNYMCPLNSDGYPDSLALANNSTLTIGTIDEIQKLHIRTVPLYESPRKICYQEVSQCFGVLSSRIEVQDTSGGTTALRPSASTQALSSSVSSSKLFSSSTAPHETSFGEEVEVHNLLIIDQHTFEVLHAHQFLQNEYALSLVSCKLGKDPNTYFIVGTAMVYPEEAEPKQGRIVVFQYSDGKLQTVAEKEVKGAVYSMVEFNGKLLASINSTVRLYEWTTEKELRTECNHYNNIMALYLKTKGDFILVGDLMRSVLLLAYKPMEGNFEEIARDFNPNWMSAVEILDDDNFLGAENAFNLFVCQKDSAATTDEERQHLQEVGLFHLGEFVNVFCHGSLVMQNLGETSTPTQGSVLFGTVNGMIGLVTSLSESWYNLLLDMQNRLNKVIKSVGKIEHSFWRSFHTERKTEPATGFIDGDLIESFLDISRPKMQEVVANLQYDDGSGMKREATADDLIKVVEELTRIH

Assay [1] deals with IKZF1 (Homo sapiens, UniProt Q13422+Q96SW2). Nature of the assay: HEK293 HiBiT in vitro degradation of IKZF1. The following applies: for IKZF1 Dmax: maximum degradation at the highest concentration tested; for EC50: read-out: IKZF1 EC50, 18-24 hr incubation, normalized to DMSO control.
Assay [2] concerns the target IKZF2 (Homo sapiens, UniProt Q96SW2+Q9UKS7). In words: HEK293 HiBiT in vitro degradation of IKZF2. The following applies: for IKZF2 Dmax: maximum degradation at the highest concentration tested; for EC50: read-out: IKZF2 EC50, 18-24 hr incubation, normalized to DMSO control.
Assay [3] has as its target SALL4 (Homo sapiens, UniProt Q96SW2+Q9UJQ4). In words: HEK293 HiBiT in vitro degradation of SALL4. Particulars: read-out: SALL4 EC50, 18-24 hr incubation, normalized to DMSO control.

By EC50 is commonly meant the concentration that produces a half-maximal response.

As for `O=C1CCC(N2Cc3c(ccc(C[C@H]4CCCC[C@@H]4NC4CC5CC5C4)c3F)C2=O)C(=O)N1` (stereo partly drawn), in assay [1], the “IKZF1 Dmax” value came to 43% and the concentration for a half-maximal effect (EC50) was 35 nM. In assay [2], the “IKZF2 Dmax” value stood at 98% and the EC50 amounted to 1 nM.
The like results for `CC1(C)C2CC(N[C@H]3CCCC[C@@H]3Cc3ccc4c(c3F)CN(C3CCC(=O)NC3=O)C4=O)CC21` (stereo partly drawn) were, in that order, 60%, 38 nM, 98% and 3 nM.
`CCOCCN[C@H]1CCCC[C@@H]1Cc1ccc2c(c1)CN(C1CCC(=O)NC1=O)C2=O` (stereo partly drawn): the EC50 is over 1000 nM in assay [1] and 55 nM in assay [2]. The “IKZF2 Dmax” value in assay [2] is listed as 73%.
On to `O=C1CCC(N2Cc3c(ccc(C[C@H]4OCCC[C@@H]4NC4CCCOCC4)c3F)C2=O)C(=O)N1` (stereo partly drawn), for which the EC50 in assay [3] was over 10000 nM; in assay [1], over 1000 nM; in assay [2], 9 nM. Also, the “IKZF2 Dmax” value in assay [2] was found to be 95%.
`O=C1CCC(N2Cc3cc(C[C@H]4CCCC[C@@H]4NC4CCCc5cn[nH]c54)ccc3C2=O)C(=O)N1` (stereo partly drawn): the concentration giving a half-maximal response (EC50) in assay [3] is over 10000 nM. Moreover, in assay [1], the “IKZF1 Dmax” value is reported as 38% and the EC50 worked out at 121 nM. Also, in assay [2], the “IKZF2 Dmax” value is given as 94% and the EC50 was 71 nM.
Regarding `O=C1CCC(N2Cc3cc(C[C@H]4CCC[C@@H](F)[C@@H]4NC4CCCCC4)ccc3C2=O)C(=O)N1` (relative stereo), the EC50 in assay [1] was over 1000 nM. In assay [2], the “IKZF2 Dmax” value was determined as 93% and the half-maximal effective concentration (EC50) was 17 nM.
For `O=C1CCC(N2Cc3cc(C[C@H]4CCC(F)(F)C[C@@H]4NC4CCCCC4)ccc3C2=O)C(=O)N1` (relative stereo), in assay [1], the “IKZF1 Dmax” value was 62% and the 50% effective concentration (EC50) was 80 nM. Also, in assay [2], the “IKZF2 Dmax” value stood at 96% and the EC50 came to 2 nM.
